Measurements taken from patent EP2386565A2, “Compounds and methods to inhibit or augment an inflammatory response” (Cambridge Enterprise Ltd., priority 1999, dated 2000).

Experiments:
[1] = molecular target: T1, Duffy Antigen Receptor for Chemokines (DARC) (human) (UniProt Q16570); assay: estimated ka for binding to red blood cells divided by average inhibitory ED50 in THP-1 migration
T1 sequence (looked up): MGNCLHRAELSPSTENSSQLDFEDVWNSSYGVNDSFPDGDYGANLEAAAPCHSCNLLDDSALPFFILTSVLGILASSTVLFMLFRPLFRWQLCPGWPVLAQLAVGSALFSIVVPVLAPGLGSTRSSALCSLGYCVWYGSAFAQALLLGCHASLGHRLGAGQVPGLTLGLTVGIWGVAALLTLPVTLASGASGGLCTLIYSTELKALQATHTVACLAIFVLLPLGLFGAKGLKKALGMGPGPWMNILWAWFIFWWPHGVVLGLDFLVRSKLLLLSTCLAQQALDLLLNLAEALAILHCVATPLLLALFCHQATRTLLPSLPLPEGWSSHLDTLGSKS

[2] = molecular target: T1, Duffy Antigen Receptor for Chemokines (DARC) (human); assay: footnote a of Table 6; given as affinity constant
[3] = molecular target: T1, Duffy Antigen Receptor for Chemokines (DARC) (human); assay: estimated ka for binding to red blood cells divided by inhibitory ED50 in THP-1 migration

Row | Duffy selectivity [1] | Kd [2] [µM] | Duffy selectivity [3] | Substance
1 | 24.8 |  |  | WVQ (peptide)
2 |  | 15 | 22.3 | KQK (peptide)
